The test system of this data set is CYP mRNAs. In words: CYP mRNA induction in HepaRG cells, statements over all CYPs investigated. As to conditions: PXR‐knockout HepaRG cells, 72 hours; 10 µM rifampicin.

The structures appear in SMILES notation.

`CO[C@H]1/C=C/O[C@@]2(C)Oc3c(C)c(O)c4c(O)c(c(/C=N/N5CCN(C)CC5)c(O)c4c3C2=O)NC(=O)/C(C)=C\C=C\[C@H](C)[C@H](O)[C@@H](C)[C@@H](O)[C@@H](C)[C@H](OC(C)=O)[C@@H]1C` [rifampicin]: the “CYP mRNA induction in HepaRG cells lacking PXR” value was “no CYP induction”.

(Values after paper PMC8247900 (Clinical Pharmacology and Therapeutics, 2021).)
